Laboratory results published in patent US9683217B2, “In vitro culture conditions for T-cell acute lymphoblastic leukemia/lymphoma” (THE UNIVERSITY OF MIAMI, priority 2013, dated 2017).

System: human T-ALL lymphoblasts
Test: Cytokine/growth factor subtraction and IGF1R blockade, resazurin-reduction cell growth assay
Type: cell-based
Details: SCF, IGF-1, IL-2, IL-7 added alone or in combination, FIG. 3
Description: A resazurin-reduction cell growth assay was performed on (A-B) primary and (C) xenograft-expanded T-ALL. Cells were cultured and passaged as described in FIG. 1. Cytokines and growth factors were subtracted out of the complete media and cells were assayed for growth using a resazurin reduction assay. Data shown are a composite of passages 1 and 2. Significance: * p<0.05, ** p<0.01, and *** p<0.001.
Cell Titer Blue (Promega) was added to a co-culture, 5 μl/well for a 12-well plate and 1 μl/well for a 96-well plate, and allowed to incubate for 2-6 hours depending on the number and type of cells present in the well. Cultures were then analyzed using a Tecan GENios Flourometric plate reader. The plate reader was set to read from the bottom at 535 nm excitation and 590 nm emission wavelengths, at optimal gain with an integration time of 80 μs and a lag time of 0 μs. The plate was orbitally shaken in the machine for 5 sec prior to reading.
Studies were also conducted with human T-ALL primary cells (FIGS. 3A-3B) and human T-ALL cells that were previously expanded in immunodeficient NSG mice (FIG. 3C). SCF, IGF-1, IL-2, and IL-7 were either added alone or in combination, then cancer cell growth was measured. Results in FIG. 3 indicate that better growth was achieved when all four cytokines are added to the in vitro culture medium. […]

How did the “importance of the supplemental cytokine for T-ALL growth” value turn out when “IL-2: ligand for the IL-2 receptor; recombinant cytokine supplement” was run?
Its value is “may improve growth of some tumors”.
